This experiment addresses glucocorticoid receptor (Homo sapiens, UniProt P04150). The experiment is described as follows: Activity assay of glucocorticoid receptor reporter gene GRE. The conditions noted are these: read-out: EC50 (nM), glucocorticoid receptor reporter gene GRE activity; HEK293 cells transfected with pGL5 and pBIND-GR; 24 h; Dual-Glo luciferase. It counts as cell-based.

The chains behind the UniProt entries cited, without tags or fusion partners.
UniProt P04150, whole entry: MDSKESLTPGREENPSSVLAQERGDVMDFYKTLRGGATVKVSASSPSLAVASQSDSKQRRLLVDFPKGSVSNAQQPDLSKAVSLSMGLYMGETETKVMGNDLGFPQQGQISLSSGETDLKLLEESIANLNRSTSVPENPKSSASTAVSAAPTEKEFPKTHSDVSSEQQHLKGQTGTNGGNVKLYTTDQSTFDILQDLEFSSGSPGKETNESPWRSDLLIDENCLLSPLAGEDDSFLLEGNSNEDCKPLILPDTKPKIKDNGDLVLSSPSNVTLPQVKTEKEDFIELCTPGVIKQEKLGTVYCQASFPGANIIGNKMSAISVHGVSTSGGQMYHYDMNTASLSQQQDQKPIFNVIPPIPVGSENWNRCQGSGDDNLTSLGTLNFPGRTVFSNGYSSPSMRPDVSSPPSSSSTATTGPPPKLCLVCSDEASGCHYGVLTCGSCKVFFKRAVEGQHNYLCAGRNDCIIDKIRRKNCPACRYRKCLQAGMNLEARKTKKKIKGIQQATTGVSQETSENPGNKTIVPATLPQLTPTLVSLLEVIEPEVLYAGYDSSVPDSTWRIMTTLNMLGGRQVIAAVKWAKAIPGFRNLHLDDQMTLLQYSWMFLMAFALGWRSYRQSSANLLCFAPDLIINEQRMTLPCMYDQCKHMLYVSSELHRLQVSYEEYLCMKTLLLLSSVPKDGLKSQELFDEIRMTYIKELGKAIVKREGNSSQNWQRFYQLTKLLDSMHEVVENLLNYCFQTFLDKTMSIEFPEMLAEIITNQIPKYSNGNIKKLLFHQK

The structures appear in SMILES notation.

As to `C[C@]12C=CC(=O)C=C1CC[C@@H]1[C@@H]2[C@@H](O)C[C@@]2(C)[C@H]1C[C@H]1O[C@@H](c3ccc(Cc4cccc(N)c4)o3)O[C@]12C(=O)CO`, the EC50 is greater than 1000 nM.

Source of the values: patent US20250179114A1.
